Test results from patent US20260078130A1, “NAMPT MODULATORS, PREPARATIONS, AND USES THEREOF” (SIRONAX LTD., priority 2022, published 2026).

Sequences of proteins named here, by UniProt entry; tags and fusion partners are left off.
UniProt P43490, whole entry: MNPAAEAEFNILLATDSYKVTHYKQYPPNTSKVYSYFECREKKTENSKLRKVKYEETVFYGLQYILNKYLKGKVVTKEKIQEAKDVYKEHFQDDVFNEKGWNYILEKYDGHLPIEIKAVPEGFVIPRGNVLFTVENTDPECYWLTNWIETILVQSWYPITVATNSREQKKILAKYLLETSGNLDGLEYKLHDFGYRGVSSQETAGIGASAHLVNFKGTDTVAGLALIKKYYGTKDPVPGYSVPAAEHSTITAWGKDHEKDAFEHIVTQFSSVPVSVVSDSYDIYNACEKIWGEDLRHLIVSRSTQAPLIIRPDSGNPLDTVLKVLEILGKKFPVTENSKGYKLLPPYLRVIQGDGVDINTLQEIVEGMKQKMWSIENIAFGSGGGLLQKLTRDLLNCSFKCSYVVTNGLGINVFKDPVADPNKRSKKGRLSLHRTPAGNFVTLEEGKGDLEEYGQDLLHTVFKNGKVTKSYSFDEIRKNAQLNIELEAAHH

Tests used:
[1] = target: human enzyme NAMPT (full length) (Homo sapiens, UniProt P43490); test: NMN fluorescence biochemical assay (stimulation of NMN synthesis by NAMPT); conditions: for Enzymatic Emax: fold change of maximal activation compared to DMSO; for pEC50: read-out: Enzymatic EC50, concentration giving half-maximal activation
[2] = system: endogenous NAMPT in U2OS cells; test: Cellular NAD+ modulation assay (NAD/NADH-Glo, U2OS cells)
[3] = NMN synthesis by purified human NAMPT (100 nM)
[4] = 24 hours incubation with compound
[5] = read-out: Cellular EC50, 24 hours incubation with compound
[6] = NMN fluorescence assay, purified human NAMPT 100 nM

Structure (SMILES)	Enzymatic Emax [1]	further results
Cn1ncc(Cl)c1CC1c2cc(F)cc(F)c2C(=O)N1C[C@H]1C[C@]2(CNC(=O)O2)C1 (single isomer, unassigned) [Compound 549/550 (RT = 4.624 min)]	C (2≥C)	–
CC1c2cc(CN3CCOCC3)ccc2C(=O)N1Cc1ccc2[nH]c(=O)oc2c1 (single isomer, unassigned) [Compound 144/145 (Int 10/Int11: RT = 1.728 min as a starting]	B (3≥B>2)	–
Cc1ccnc(C#N)c1CC1c2ccccc2C(=O)N1Cc1ccc2[nH]nnc2c1 (single isomer, unassigned) [Compound 368/369 (RT = 2.235 min)]	C (2≥C)	–
O=C1c2ccccc2C(Cc2ncccc2Br)N1Cc1ccc2[nH]c(=O)oc2c1 (single isomer, unassigned) [Compound 206/207 (RT = 1.302 min)]	A (A>3)	pEC50 [1, 3]: > 6.30; Cellular Emax [2, 4]: A (A>1.5); pEC50 [2, 5]: > 6.30
Cn1nc(Cl)c(Cl)c1CC1c2ccccc2C(=O)N1C[C@H]1C[C@]2(CNC(=O)O2)C1 (single isomer, unassigned) [Compound 533/534 (RT = 1.313 min)]	C (2≥C)	pEC50 [1, 6]: < 5.30
O=C1c2ccccc2C(Cc2nn(C3COC3)cc2Cl)N1Cc1ccc2[nH]nnc2c1 (single isomer, unassigned) [Compound 378/379 (RT = 5.826 min)]	B (3≥B>2)	pEC50 [1, 6]: > 6.30; Cellular Emax ([2]; 24 hours incubation, cellular NAD+): A (A>1.5); pEC50 ([2]; read-out: Cellular EC50, 24 hours incubation, cellular NAD+): > 6.30
COc1ccc(CN2C(=O)c3ccccc3C2Cc2c(Cl)cnn2C)cc1F (single isomer, unassigned) [Compound 633/634 (RT = 2.036 min)]	C (2≥C)	–
Cn1ncc(Cl)c1CC1c2ccccc2C(=O)N1C[C@H]1C[C@]2(C1)OC(=O)NC2=O (single isomer, unassigned) [Compound 569/644 (RT = 8.031 min)]	C (2≥C)	pEC50 [1, 6]: < 5.30
N#Cc1nccc(Cl)c1CC1c2ccccc2C(=O)N1Cc1ccc2[nH]nnc2c1 (single isomer, unassigned) [Compound 229/230 (RT = 8.249 min)]	A (A>3)	pEC50 [1, 3]: 5.30 to 6.30
CC1c2cc(C3CC3)ccc2C(=O)N1Cc1ccc2[nH]c(=O)oc2c1 (single isomer, unassigned) [Compound 126/127 (Int 10/Int 11: RT = 1.728 min as a startin]	A (A>3)	pEC50 [1, 3]: 5.30 to 6.30; Cellular Emax [2, 4]: A (A>1.5); pEC50 [2, 5]: 5.30 to 6.30
Cn1ncc(Cl)c1CC1c2cc(Cl)cc(F)c2C(=O)N1C[C@H]1C[C@]2(CNC(=O)O2)C1 (single isomer, unassigned) [Compound 553/554 (RT = 3.614 min)]	C (2≥C)	–
CC1c2cc(C3CC3)ccc2C(=O)N1Cc1ccc2[nH]c(=O)oc2c1 (single isomer, unassigned) [Compound 126/127 (Int 10/Int 11: RT = 1.969 min as a startin]	B (3≥B>2)	pEC50 [1, 3]: 5.30 to 6.30; Cellular Emax [2, 4]: A (A>1.5); pEC50 [2, 5]: 5.30 to 6.30
N#Cc1nccc(Cl)c1CC1c2ccccc2C(=O)N1Cc1ccc2[nH]nnc2c1 (single isomer, unassigned) [Compound 229/230 (RT = 7.184 min)]	A (A>3)	pEC50 [1, 3]: > 6.30; Cellular Emax [2, 4]: B (1.5≥B>1.2); pEC50 [2, 5]: > 6.30
O=C1c2ccc(Oc3ccccc3)cc2C(=O)N1Cc1ccc(O)cc1	B (3≥B>2)	pEC50 [1, 3]: 5.30 to 6.30
O=C1NCC2(CCC(CN3C(=O)c4ccccc4C3Cc3ncccc3Br)CC2)O1 (single isomer, unassigned)	C (2≥C)	pEC50 [1, 6]: 5.30 to 6.30
Cn1ncc(Cl)c1CC1c2cccc(F)c2C(=O)N1C[C@H]1C[C@]2(CNC(=O)O2)C1 (single isomer, unassigned) [Compound 426/427 (RT = 2.312 min)]	C (2≥C)	–

Structure (SMILES)	Enzymatic Emax [1]	further results
O=C1NC[C@]2(C[C@H](CN3C(=O)c4ccccc4C3Cc3ncccc3Br)C2)O1 (single isomer, unassigned) [Compound 345/346 (RT = 1.286 min)]	C (2≥C)	–
N#Cc1cccnc1CC1c2ccccc2C(=O)N1Cc1ccc2[nH]c(=O)oc2c1 (single isomer, unassigned) [Compound 258/259 (RT = 1.809 min)]	C (2≥C)	–
O=C1c2ccccc2C(Cc2ncccc2Br)N1Cc1cc2oc(=O)[nH]c2cn1 (stereo not shown)	C (2≥C)	–
CC1(CN2C(=O)c3ccccc3C2Cc2ncccc2Br)CC2(CNC(=O)O2)C1 (single isomer, unassigned) [Compound 376/377 (RT = 4.40 min)]	C (2≥C)	pEC50 [1, 6]: 5.30 to 6.30
Cc1ncnc(C#N)c1CC1c2ccccc2C(=O)N1C[C@H]1C[C@]2(CNC(=O)O2)C1 (single isomer, unassigned) [Compound 545/546 (RT = 6.524 min)]	C (2≥C)	pEC50 [1, 6]: < 5.30
Cn1ncc(Cl)c1CC1c2ccccc2C(=O)N1C/C=C/c1nn[nH]c1F (single isomer, unassigned) [Compound 570/571 (RT = 5.999 min)]	C (2≥C)	–
CC(c1ccccn1)C1c2ccccc2C(=O)N1Cc1ccc2[nH]c(=O)oc2c1 (racemic) [Mixture of 152 and 153/mixture of 154 and 155 (RT = 3.24 min]	C (2≥C)	–
CN1CCCC(CC2c3ccccc3C(=O)N2Cc2ccc3[nH]c(=O)oc3c2)C1=O (racemic) [Mixture of 235 and 236/mixture of 237 and 238 (RT = 3.54 min]	C (2≥C)	–
O=C1c2ccccc2C(Cc2ncccc2C(F)F)N1Cc1ccc2[nH]c(=O)oc2c1 (single isomer, unassigned) [Compound 192/193 (RT = 1.350 min)]	C (2≥C)	pEC50 [1, 3]: 5.30 to 6.30
O=C1NCC2(CC(F)(CN3C(=O)c4ccccc4C3Cc3ncccc3Br)C2)O1 (single isomer, unassigned) [Compound 441/442 (RT = 4.63 min)]	B (3≥B>2)	pEC50 [1, 6]: 5.30 to 6.30
O=C1c2ccccc2C(Cc2ncccc2Br)N1Cc1ccc2[nH]c(=O)oc2c1 (single isomer, unassigned) [Compound 206/207 (RT = 1.087 min)]	B (3≥B>2)	–
Cn1ncc(Cl)c1CC1c2ccccc2C(=O)N1Cc1ccc2[nH]nnc2c1 (single isomer, unassigned) [Compound 319/320]	C (2≥C)	–
O=C1c2ccccc2C(Cc2nn(C3COC3)cc2Cl)N1Cc1ccc2[nH]nnc2c1 (single isomer, unassigned) [Compound 378/379 (RT = 3.572 min)]	B (3≥B>2)	–
[2H]C1([2H])NC(=O)O[C@]12C[C@@H](CN1C(=O)c3ccccc3C1Cc1c(Cl)cnn1C)C2 (single isomer, unassigned) [Compound 536/537 (RT = 2.013 min)]	C (2≥C)	–
Cc1ccnc(C#N)c1CC1c2ccccc2C(=O)N1C[C@H]1C[C@]2(CNC(=O)O2)C1 (single isomer, unassigned) [Compound 407/408 (RT = 2.628 min)]	C (2≥C)	pEC50 [1, 6]: 5.30 to 6.30
COc1ccc(CN2C(=O)c3ccccc3C2Cc2c(Cl)cnn2C)cc1 (single isomer, unassigned) [Compound 617/618 (RT = 2.253 min)]	C (2≥C)	pEC50 [1, 6]: < 5.30

pEC50: −log10 of the molar value. Like-named read-outs stand apart in the source and are kept apart here.
